{"source": "patent US20140248638A1", "about": "(BAXALTA, published 2014)", "target": "T1, mouse oxMIF (mouse, UniProt P34884 2-115, oxidized isoform (mild oxidation or 0.2% Proclin300; endogenous in diseased mice); the modified residues are not stated)", "T1 construct": "also called murine oxMIF; recombinant moMIF treated with Proclin300", "experiment": "flow cytometry on whole blood of E. coli challenged mice, gated on granulocytes (GR1) and monocytes (CD14); 300 nM RAB9, detected with R-PE anti-human IgG", "description": "Blood from PBS- or E. coli-challenged mice was stained in Cell Staining Buffer (Biologend) with either Alexa700-labeled anti-CD3ε (for T cells) and PerCP-Cy5.5-labeled anti-Ly6G (for granulocytes) or APC-labeled anti-CD14 (for monocytes) and PE-Cy7-labeled anti-CD19 (for B cells) in parallel with 300 nM RAB9 or control IgG. After washing, the human antibodies were detected using the goat R-PE-labeled anti-human IgG antibodies. After washing, the red blood cells were lysed with the BD FACS™ Lysing solution (Becton Dickinson, Franklin Lakes, USA). Data acquisition was performed using a FACS™ Canto II (Becton Dickinson) with the DIVA™ software (software version 6; Becton Dickinson) and the data were analyzed using the FlowJo™ software (Treestar, Ashland, Oreg., USA).\nThe presence of oxMIF on the surface of the blood cells from peritonitic mice was analysed. Blood was harvested by cardiac puncture after 1, 3 or 21 h post-challenge, i.e. PBS for the control group and 2000 CFU E. coli for the peritonitic mice. The staining with RAB9 was performed on full blood and red cells were lysed before the analysis.", "data": [{"binder": "anti-MIF antibody RAB9 (antibody, human IgG4 S228P, kappa, V domains shown, Also deposited as plasmids DSM 25111 and DSM 25113; also called human anti-MIF monoclonal antibody RAB9; anti-oxMIF antibody RAB9) VH: EVQLLESGGGLVQPGGSLRLSCAASGFTFSIYSMNWVRQAPGKGLEWVSSIGSSGGTTYYADSVKGRFTISRDNSKNTLYLQMNSLRAEDTAVYYCAGSQWLYGMDVWGQGTTVTVSS VL: DIQMTQSPSSLSASVGDRVTITCRSSQRIMTYLNWYQQKPGKAPKLLIFVASHSQSGVPSRFRGSGSETDFTLTISGLQPEDSATYYCQQSFWTPLTFGGGTKVEIKR", "values": [{"measurement": "binding result", "value": "binds"}]}]}
